{
  "source": "patent US5814488A",
  "key": {"bacteria infected mice": {"tested_on": "bacteria infected mice", "experiment": "In vivo therapeutic effect on bacteria infected mice"}, "in vivo [1]": {"experiment": "in vivo", "details": "rat"}, "in vivo [2]": {"experiment": "in vivo", "details": "mouse"}, "in vivo [3]": {"experiment": "in vivo", "details": "rat, ip"}, "[4]": {"tested_on": "GM-resistant, MCR-resistant and cefazolin-resistant strains", "experiment": "In vitro MIC on resistant strains", "format": "cell-based", "source_text": "[…]. […] […]"}, "in vivo [5]": {"experiment": "in vivo", "details": "mouse", "remark": "listed apart in the source"}},
  "data": [
    {"molecule": "CCNC1CC(N)C(OC2OC(CN)CCC2N)C(O)C1OC1OCC(C)(O)C(NC)C1O", "note": "(stereo not drawn)", "values": [
      {"measurement": "negative-turning ratio, culture of heart blood of survival mice", "setting": "bacteria infected mice", "value": "good negative-turning ratio"},
      {"measurement": "LD50", "setting": "in vivo [1]; im", "value": 565, "unit": "mg/kg"},
      {"measurement": "LD50", "setting": "in vivo [1]; ip", "value": 628, "unit": "mg/kg"},
      {"measurement": "LD50", "setting": "in vivo [1]; iv", "value": 73.8, "unit": "mg/kg"},
      {"measurement": "LD50", "setting": "in vivo [1]; sc", "value": 403, "unit": "mg/kg"},
      {"measurement": "LD50", "setting": "in vivo [2]; iv", "value": 79.9, "unit": "mg/kg"},
      {"measurement": "LD50", "setting": "in vivo [2]; sc", "value": 460, "unit": "mg/kg"},
      {"measurement": "NOAEL at 2160 h", "setting": "in vivo [3]", "value": 30, "unit": "mg/kg/day"},
      {"measurement": "MIC values relative to effective serum concentration range", "setting": "[4]", "value": "half or more than half of GM-resistant, MCR-resistant and cefazolin-resistant strains are within its effective serum concentration range"},
      {"measurement": "LD50", "setting": "in vivo [5]; im", "value": 173, "unit": "mg/kg"},
      {"measurement": "LD50", "setting": "in vivo [5]; iv", "value": 65.5, "unit": "mg/kg"},
      {"measurement": "LD50", "setting": "in vivo [5]; sc", "value": 480, "unit": "mg/kg"}
    ]}
  ]
}
